According to patent US8815844B2, “Mitochondrial activity inhibitors of cancer-initiating cells and use thereof” (Universite de Geneve, priority 2009, dated 2014):

Tested on: normal brain cells

Oligomycin A/B
effect on normal brain cells (FIG. 6): eradicate any kind of brain cells including normal and glioma ones
viability of normal brain cells (exposure for 10 days): sensitive
